Measured values as given in patent US11959104B2, “Methods of differentiating stem cell-derived ectodermal lineage precursors” (MEMORIAL SLOAN-KETTERING CANCER CENTER, priority 2016, dated 2024).

Experiments:
Type in all cases: cell-based, human
pituitary-lineage cells [1] = experiment: Dorsal-ventral patterning of pituitary cells, single cell qRT-PCR
Procedure: (§1) For standard (unless mentioned otherwise in the text) pituitary maturation, medium on day 30 was changed to “E6 only” for additional 30 days. For patterning experiments (indicated in the text) E6 medium was supplemented with either high concentrations of FGF8 (100 ng/ml, dorsalize), high concentrations of BMP2 (20 ng/ml, ventralize) or intermediate concentrations of both (FGF8 50 ng/ml, BMP2 10 ng/ml).
For single cell PCR analysis cells were detached using Accutase. After filtering through a 40 μm cell strainer DAPI negative cells were sorted on a BDFACS Aria III machine, essentially cleaning up the cell preparation of debris and dead cells. Sorted cell suspension was adjusted to a concentration of 400 000 cells/ml. Single cells were captured using the Fluidigm C1 system according to the manufactures manual. Capture rate of for each C1 chip was confirmed microscopically using a standard tissue culture bright flied microscope. Capture rates were as follows: day 30: 91% (87/96) day 60: 94% (90/96) day 60 FGF8: 93% (89/96) day 60 FGF8/BMP2: 89% (85/96) day 60 BMP2: 93% (89/96). Cells were lysed, RNA was extracted and transcribed into cDNA using the C1 in combination with wet-lab tested Fluidigm DELTAgene assays (FIG. 27) following the manufactures protocol. Wet-lab tested DELTAgene assays were purchased directly from Fluidigm. The resulting cDNA was diluted 1:5 and subjected to Single cell PCR amplification using the Fluidigm BioMark system in combination with EvaGreen chemistry according to the manufactures manual (“Fast Gene Expression Analysis Using EvaGreen on the BioMark or BioMark HD System”). PCR was run using a Fluidigm 96.96 Dynamic Array. Each primer pair was run in technical duplicates on the chip. […] Expression data was analyzed using the Fluidigm Real-Time PCR analysis software in combination with the Fluidigm SINGuLAR Analysis Toolset for R (Version 3.0.2 (2013-09-25) “Frisbee Sailing”).

pituitary-lineage cells [2] = experiment: Dorsal-ventral patterning of pituitary cells, bulk qRT-PCR; conditions: day 60, patterned for 30 days
Procedure: as §1
Total RNA was extracted from at least 3 independent experiments using the TRIzol (Fisher Scientific) reagent in combination with Phase-lock tubes (5Prime) according to the manufactures protocol. 1 μg of total RNA was reverse transcribed into cDNA using iScript (BioRad). For quantitative RT PCR we used the SSoFast EvaGreen Mix (BioRad) in combination with QuantiTect primer assays (Qiagen) on a BioRad CFX96 Thermal Cycler. All reactions were run according to the manufacturer's protocol. Results are calculated using the ΔΔCt method (Livak and Schmittgen, 2001).

pituitary-lineage cells [3] = experiment: Dorsal-ventral patterning of pituitary cells, immunofluorescence quantification; conditions: day 60
Procedure: as §1
After washing the cells once with PBS, cells were fixed with 4% (v/v) paraformaldehyde for 20 min, washed twice with PBS, permeabilized using 0.1% (v/v) Triton X-100 in PBS, Cells were blocked with 10% (v/v) FCS in PBS for 1-5 h at room temperature. Cells were incubated with primary antibodies diluted in 2% FCS (v/v) in PBS at 4° C. overnight. A list of the primary antibodies used in this study is provided as FIG. 28. After primary antibody incubation cells were washed twice with PBS followed by incubation with appropriate AlexaFluor-conjugated secondary antibodies diluted in PBS at room temperature for 1 h (1:1000; Molecular Fisher Scientific). After washing twice with PBS nuclei were stained using DAPI. After and additional 2 washing steps, fluorescence images of the cells were taken using an Olympus IX71 inverted microscope equipped with a Hamamatsu ORCA CCD camera.

B1: BMP2: activator of BMP signaling, ventralizing agent (protein, UniProt P12643 283-396, looked up)
Bone morphogenetic protein 2: QAKHKQRKRLKSSCKRHPLYVDFSDVGWNDWIVAPPGYHAFYCHGECPFPLADHLNSTNHAIVQTLVNSVNSKIPKACCVPTELSAISMLYLDENEKVVLKNYQDMVVEGCGCR
- cells expressing POMC (pituitary-lineage cells [1]; day 60, high concentration of factor): 40%
- number of ACTH+ dorsal cell types (pituitary-lineage cells [1]; day 60, high concentrations): decreased the number of ACTH+ dorsal cell types
- number of ventral cell types expressing FSHB and LHB (pituitary-lineage cells [1]; day 60, high concentrations): increased the number of ventral cell types expressing FSHB and LHB
- FSHB and LHB gene expression (pituitary-lineage cells [2]): significantly upregulated
- hormone expressing cells by immunocytochemistry (pituitary-lineage cells [3]): FSH was the most abundant cell type
